The values below come from patent US20030022283A1.

Sequences of proteins named here, by UniProt entry; tags and fusion partners are left off. A change or cut given only in a name is not applied to a line headed by its entry. A line that says so, or that is headed by a name, gives the form on record, which may keep a tag or linker.
UniProt Q15761: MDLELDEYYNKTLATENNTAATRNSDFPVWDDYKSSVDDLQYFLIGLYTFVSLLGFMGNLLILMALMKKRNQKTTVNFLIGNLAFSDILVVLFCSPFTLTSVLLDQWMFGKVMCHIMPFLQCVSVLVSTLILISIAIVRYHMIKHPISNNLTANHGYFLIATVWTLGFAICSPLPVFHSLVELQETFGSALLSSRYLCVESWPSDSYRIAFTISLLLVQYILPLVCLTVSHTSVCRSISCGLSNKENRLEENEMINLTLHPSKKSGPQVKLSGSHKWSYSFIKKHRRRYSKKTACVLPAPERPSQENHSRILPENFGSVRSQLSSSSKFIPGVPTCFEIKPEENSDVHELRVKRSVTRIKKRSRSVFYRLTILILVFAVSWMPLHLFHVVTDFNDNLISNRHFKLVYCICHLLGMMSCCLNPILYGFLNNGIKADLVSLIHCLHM
UniProt Q9ERC0, entry or part of it limits assumed, form in doubt: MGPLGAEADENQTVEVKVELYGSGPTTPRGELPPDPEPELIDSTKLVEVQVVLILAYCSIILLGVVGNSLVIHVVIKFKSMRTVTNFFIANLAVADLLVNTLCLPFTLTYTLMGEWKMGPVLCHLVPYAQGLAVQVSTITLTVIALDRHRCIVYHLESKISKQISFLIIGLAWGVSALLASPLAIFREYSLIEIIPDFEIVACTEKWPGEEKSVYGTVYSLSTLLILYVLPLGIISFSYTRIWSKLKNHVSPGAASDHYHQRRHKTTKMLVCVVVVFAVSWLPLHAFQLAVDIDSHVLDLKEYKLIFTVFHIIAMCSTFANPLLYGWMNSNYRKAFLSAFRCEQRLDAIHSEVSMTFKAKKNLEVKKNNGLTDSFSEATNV
UniProt P21555, whole entry: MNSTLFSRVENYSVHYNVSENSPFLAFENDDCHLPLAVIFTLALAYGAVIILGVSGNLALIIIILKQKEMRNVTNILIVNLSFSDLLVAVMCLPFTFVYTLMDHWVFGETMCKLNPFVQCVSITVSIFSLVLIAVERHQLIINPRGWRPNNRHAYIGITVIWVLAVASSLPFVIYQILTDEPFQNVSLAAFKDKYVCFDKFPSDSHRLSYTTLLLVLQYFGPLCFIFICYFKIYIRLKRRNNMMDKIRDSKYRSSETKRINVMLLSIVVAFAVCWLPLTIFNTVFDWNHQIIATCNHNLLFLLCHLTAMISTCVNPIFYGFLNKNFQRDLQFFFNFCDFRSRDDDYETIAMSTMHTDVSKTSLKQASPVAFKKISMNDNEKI
UniProt Q63447: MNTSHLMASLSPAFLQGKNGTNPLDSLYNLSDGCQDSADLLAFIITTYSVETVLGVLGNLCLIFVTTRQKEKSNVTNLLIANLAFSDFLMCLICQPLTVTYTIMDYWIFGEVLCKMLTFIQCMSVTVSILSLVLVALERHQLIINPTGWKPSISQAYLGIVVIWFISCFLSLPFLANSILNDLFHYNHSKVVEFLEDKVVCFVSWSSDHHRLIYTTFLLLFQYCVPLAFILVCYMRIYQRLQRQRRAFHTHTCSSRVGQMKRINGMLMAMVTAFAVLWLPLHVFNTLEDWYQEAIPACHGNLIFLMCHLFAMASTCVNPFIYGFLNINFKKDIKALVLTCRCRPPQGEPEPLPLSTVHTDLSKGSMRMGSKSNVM

Assay [1] deals with Human NPY Y5 receptor (human) (UniProt Q15761). The experiment in a line: competition with [125I]PYY, membranes of stably transfected 293 cells.
Assay [2] deals with Rat NPY Y5 receptor, 6B clone (Y217.24.13.6B) (rat) (UniProt Q63634). Kind of assay: competition with [125I]PYY, membranes of transiently transfected COS-7 cells.
In assay [3] the target is Rat NPY Y5 receptor, Y555 clone (rat) (UniProt Q63634). The assay is described as above.
Assay [4] concerns the target T1, Rat NPY Y5 receptor, Y861 clone (rat) (UniProt Q63634).
T1 sequence: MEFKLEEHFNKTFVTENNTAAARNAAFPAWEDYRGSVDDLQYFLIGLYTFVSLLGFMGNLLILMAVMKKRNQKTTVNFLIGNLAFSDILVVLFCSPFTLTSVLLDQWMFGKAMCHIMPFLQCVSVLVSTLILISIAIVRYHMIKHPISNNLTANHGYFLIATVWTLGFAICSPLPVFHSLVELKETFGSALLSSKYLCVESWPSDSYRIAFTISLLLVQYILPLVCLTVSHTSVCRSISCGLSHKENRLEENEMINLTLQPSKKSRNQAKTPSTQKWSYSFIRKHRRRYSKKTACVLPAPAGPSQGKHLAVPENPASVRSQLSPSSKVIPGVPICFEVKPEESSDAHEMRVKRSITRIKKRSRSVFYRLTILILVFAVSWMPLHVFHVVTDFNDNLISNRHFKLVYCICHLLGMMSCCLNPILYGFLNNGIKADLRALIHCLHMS
Kind of assay: competition with [125I]PYY, rat Y5 Y861 clone.

Assay [5] deals with Rat NPY Y2 receptor (clone) (rat) (UniProt Q9ERC0). The experiment in a line: competition with [125I]PYY, rat Y2 clone.
Assay [6] has as its target Human NPY Y5 receptor (human) (UniProt Q15761). Kind of assay: competition with [125I]PYY, membranes of transiently transfected cells.
The target in assay [7] is Rat NPY Y1 receptor (clone) (rat) (UniProt P21555). The experiment in a line: competition with [125I]PYY, rat Y1 clone.
In assay [8] the target is Rat Y4/PP1 receptor (clone) (rat) (UniProt Q63447). The experiment in a line: competition with rat [125I]PP, rat Y4/PP1 clone.
For assay [9], the target named is T1, Rat NPY Y5 receptor, Y861 clone (rat). Kind of assay: competition with [125I]PYY, membranes of stably transfected 293S cells.
Assay [10] shares this target. The experiment in a line: cell-based or functional assay.
In assay [11] the target is Human NPY Y5 receptor (human) (UniProt Q15761). Kind of assay: cell-based or functional assay.

“(3-36)PYY (species not stated, Table 2) (peptide)”: the Ki in assay [1] came out at 4.5 nM.
Consider “porcine (3-36)NPY (from UniProt P01304 12-45) (peptide)”, for which the figures for the Ki in assay [2] and in assay [6] were 1.9 nM and 10.4 nM, respectively. Further, the IC50 in assay [3] was 3.6 nM; in assay [4] it was 2.2 nM; in [5] it was 0.67 nM; in assay [7] it was 45 nM.
As for “porcine (18-36)NPY (from UniProt P01304 27-45) (peptide)”, the Ki in assay [2] came to 194 nM; in [9] it was 61 nM. For the same substance, the IC50 in assay [3] stood at 303 nM; in assay [8], 159 nM; in [4] it was 326 nM.
“rat (13-36)NPY (as printed in Table 1) (from UniProt P07808 42-65) (peptide)” registered a Ki in assay [2] of 11 nM. This substance showed an IC50 in [3] of 73 nM.
In the case of “rat/human (Leu31Pro34)(3-36)NPY (from UniProt P01303 31-64) (peptide)”, the inhibition constant (Ki) in assay [1] amounted to 3.1 nM; in [9], 2.9 nM. Besides, in assay [10], the EC50, forskolin-stimulated adenylate cyclase (cAMP radioimmunoassay), stably transfected 293S cells was found to be 31 nM. The substance further returned an EC50, forskolin-stimulated adenylate cyclase (cAMP radioimmunoassay), stably transfected 293 cells in [11] of 23 nM. Also, the results for the IC50 in [4], in [5] and in assay [7] were 3.4 nM, 154 nM and 44 nM, respectively.
